## Yeast mating assay 2: variants of the scFv Ab-95

All variants were tested on one target, the spike HR2 peptide PDVDLGDISGINAS (SARS-CoV-2).

The variants keep the heavy chain, the linker and the frameworks of Ab-95 (scFv order VH, three GGGGS repeats, VL).
VH: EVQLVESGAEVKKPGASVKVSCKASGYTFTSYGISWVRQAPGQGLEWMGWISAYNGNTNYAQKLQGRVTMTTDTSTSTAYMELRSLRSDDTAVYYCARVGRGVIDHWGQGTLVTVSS
VL: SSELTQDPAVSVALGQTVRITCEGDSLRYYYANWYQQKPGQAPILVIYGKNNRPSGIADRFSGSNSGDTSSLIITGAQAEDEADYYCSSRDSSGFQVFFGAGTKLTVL

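The parent was found by panning a naive human phage display library on the peptide. The library (AAYL52) carries one to three amino acid substitutions per variant, with no insertions or deletions. The scFvs were displayed on barcoded MATa yeast, the peptide on MATalpha yeast. Binding brings cells together so that they mate, and sequencing counts the barcode pairs among the diploids. Scores were corrected for input abundance and mapped to Kd with protein pairs of known affinity run in the same pool. The assay was run in three technical replicates.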

The whole VL of each variant is written out. This list gathers variants with a substitution at N33 (VL, numbered from residue 1). Scale: log10 of Kd in nM, estimated from mating counts; low values are strong binders. Where no diploid with the target was found in that replicate, the entry reads "nd": below detection, most likely a poor binder, though not proof of it. Parent in this assay: reference entry 2.31, copy in this library 2.25. Empty control strains, which show no peptide, gave a signal in 28% of pairings with library AAYL52; the median was 3.91 and 95% of these signals were weaker than 2.90. No background was subtracted.

For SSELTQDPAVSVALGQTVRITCEMDSLRYYYAWWYQQKPGQAPILVIYGKNNRPSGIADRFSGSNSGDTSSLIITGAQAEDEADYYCSSRDSSGFQVGFGAGTKLTVL, the assay gave 3.09, nd, nd. With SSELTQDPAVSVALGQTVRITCEGDSLRYYYEPWYQQKPGQAPILVIYGKNNRPSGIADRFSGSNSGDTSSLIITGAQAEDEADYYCSSRDSSGFQLFFGAGTKLTVL the result was nd, nd, nd. For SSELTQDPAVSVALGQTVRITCERDSLRYYYAKWYQQKPGQAPILVIYGKNNRPWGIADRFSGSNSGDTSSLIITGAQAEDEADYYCSSRDSSGFQVFFGAGTKLTVL, the assay gave nd, nd, nd. The variant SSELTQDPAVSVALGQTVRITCEEDSLHYYYAQWYQQKPGQAPILVIYGKNNRPSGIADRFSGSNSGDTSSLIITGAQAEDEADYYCSSRDSSGFQVFFGAGTKLTVL showed nd, nd, 3.65. The variant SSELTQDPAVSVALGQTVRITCEGDSLRYYYACWYQQKPGQAPILVIYGKNNRPSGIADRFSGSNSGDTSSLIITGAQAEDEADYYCSSRDSSGFAVMFGAGTKLTVL gave nd, 5.25, 3.99. For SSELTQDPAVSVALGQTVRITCEGDSLRYYLACWYQQKPGQAPILVIYGKNNRPSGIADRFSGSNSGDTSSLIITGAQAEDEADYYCSSCDSSGFQVFFGAGTKLTVL, the assay gave 4.42, nd, nd.

The variant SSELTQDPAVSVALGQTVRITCEGDSLRYYYAVWYQQKPGQAPILVIYGKNNRPSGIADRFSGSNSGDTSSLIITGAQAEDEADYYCSQRDSSGFQNFFGAGTKLTVL showed 3.82, 4.38, nd. The variant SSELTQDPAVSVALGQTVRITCEGDSLRYYYCQWYQQKPGQAPILVIYGKNNRPSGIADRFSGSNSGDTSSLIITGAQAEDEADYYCSSRDCSGFQVFFGAGTKLTVL gave 3.56, nd, 3.95. The variant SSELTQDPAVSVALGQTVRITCEGDSLRYPYAMWYQQKPGQAPILVIYGKNNRPSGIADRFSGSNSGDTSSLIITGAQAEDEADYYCSSSDSSGFQVFFGAGTKLTVL gave nd, nd, nd. For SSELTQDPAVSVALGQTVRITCEGDSLRYPYAPWYQQKPGQAPILVIYGKNNEPSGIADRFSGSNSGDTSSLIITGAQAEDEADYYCSSRDSSGFQVFFGAGTKLTVL, the assay gave 4.23, 4.97, nd. The variant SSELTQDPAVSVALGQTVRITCEGDDLRYYYAWWYQQKPGQAPILVIYGKNNRPSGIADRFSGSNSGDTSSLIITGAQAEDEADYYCSSRMSSGFQVFFGAGTKLTVL gave 5.43, 4.93, nd. For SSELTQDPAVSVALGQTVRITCEGDSLRYYYAGWYQQKPGQAPILVIYGKNNRVSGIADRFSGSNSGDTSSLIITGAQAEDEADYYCSSRDMSGFQVFFGAGTKLTVL, the assay gave 3.63, nd, nd.

With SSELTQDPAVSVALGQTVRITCEVDSLRYYNATWYQQKPGQAPILVIYGKNNRPSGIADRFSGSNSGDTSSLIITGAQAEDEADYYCSSRDSSGFQVFFGAGTKLTVL the result was nd, nd, 3.08. The variant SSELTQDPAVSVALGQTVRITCAGDSLRYYYASWYQQKPGQAPILVIYGKNNRPSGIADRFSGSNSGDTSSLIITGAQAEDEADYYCSSRDSSGFQVSFGAGTKLTVL gave 3.12, 3.28, 2.83. The variant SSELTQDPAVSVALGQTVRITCEGDSLRYYYAGWYQQKPGQAPILVIYGKNNRPSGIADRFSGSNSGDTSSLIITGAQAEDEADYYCNSRDSSGFRVFFGAGTKLTVL gave nd, nd, nd. The variant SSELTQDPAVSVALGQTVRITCEGDSLRYYYAHWYQQKPGQAPILVIYGKNWRPSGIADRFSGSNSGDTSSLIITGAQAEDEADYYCSSRDSSNFQVFFGAGTKLTVL gave nd, nd, nd. The variant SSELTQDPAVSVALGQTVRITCEGDSLRYYYAWWYQQKPGQAPILVIYGKNNRISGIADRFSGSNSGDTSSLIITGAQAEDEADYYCSSRDSSGFQVFFGAGTKLTVL showed 3.28, 2.82, nd. For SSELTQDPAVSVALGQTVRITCEGDSLMYYYAQWYQQKPGQAPILVIYGKNVRPSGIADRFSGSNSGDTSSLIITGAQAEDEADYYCSSRDSSGFQVFFGAGTKLTVL, the assay gave 2.37, 1.79, 1.93.

The variant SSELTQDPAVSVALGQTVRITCEGDSFRYYYAKWYQQKPGQAPILVIYGKNNRPSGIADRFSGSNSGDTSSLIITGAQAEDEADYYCSSRDKSGFQVFFGAGTKLTVL showed 1.80, 1.55, 1.06. For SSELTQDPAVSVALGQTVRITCEGDSLRYGYAYWYQQKPGQAPILVIYGKNNRPSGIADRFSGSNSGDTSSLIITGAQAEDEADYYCSSRDSSGFQVGFGAGTKLTVL, the assay gave 3.22, 2.73, 1.95. For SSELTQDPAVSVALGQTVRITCEGDSLRYYYAFWYQQKPGQAPILVIYTKNNRPSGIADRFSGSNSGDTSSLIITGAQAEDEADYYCSSRDSSGFEVFFGAGTKLTVL, the assay gave 5.18, 3.99, 4.15. The variant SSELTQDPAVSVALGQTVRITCEGDSLRYYYARWYQQKPGQAPILVIYGWNNRPSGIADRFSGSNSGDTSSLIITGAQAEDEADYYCSSRDSSGFQVFFGAGTKLTVL showed nd, nd, 4.06. The variant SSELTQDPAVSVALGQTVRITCEGPSLRYYYATWYQQKPGQAPILVIYGKNNNPSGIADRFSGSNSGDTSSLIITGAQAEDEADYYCSSRDSSGFQVFFGAGTKLTVL showed nd, nd, nd. The variant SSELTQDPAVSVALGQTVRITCEGDSLRYYYAEWYQQKPGQAPILVIYGKNNRPSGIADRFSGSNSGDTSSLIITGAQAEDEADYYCSSRDTSGAQVFFGAGTKLTVL showed 3.24, 2.80, 3.49.

The variant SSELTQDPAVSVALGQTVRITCEGDSLRYYYARWYQQKPGQAPILVIYFKNNRPSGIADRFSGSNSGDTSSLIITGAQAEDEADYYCSKRDSSGFQVFFGAGTKLTVL showed 5.13, nd, nd.

4 of these entries, quoted again:

| VL | log10 Kd (nM) by replicate |
|---|---|
| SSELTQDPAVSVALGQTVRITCEGPSLRYYYATWYQQKPGQAPILVIYGKNNNPSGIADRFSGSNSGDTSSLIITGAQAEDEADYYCSSRDSSGFQVFFGAGTKLTVL | nd, nd, nd |
| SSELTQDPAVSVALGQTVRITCEGDSLRYGYAYWYQQKPGQAPILVIYGKNNRPSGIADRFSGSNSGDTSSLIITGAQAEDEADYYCSSRDSSGFQVGFGAGTKLTVL | 3.22, 2.73, 1.95 |
| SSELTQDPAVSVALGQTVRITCEGDSFRYYYAKWYQQKPGQAPILVIYGKNNRPSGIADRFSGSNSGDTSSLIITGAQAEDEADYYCSSRDKSGFQVFFGAGTKLTVL | 1.80, 1.55, 1.06 |
| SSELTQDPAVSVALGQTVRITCEEDSLHYYYAQWYQQKPGQAPILVIYGKNNRPSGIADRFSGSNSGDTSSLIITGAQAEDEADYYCSSRDSSGFQVFFGAGTKLTVL | nd, nd, 3.65 |

Data: MIT Lincoln Laboratory AlphaSeq set, Engelhart et al. 2022, doi:10.1038/s41597-022-01779-4, as distributed in FLAb.